Measurements as given in US5607937A, “Piperazides of substituted phenylalanine derivatives as thrombin inhibitors” (priority 1993, dated 1997).

Molecular target: thrombin (Bos taurus, UniProt P00735)
Details: read-out: Ki, Thrombin

Structure (SMILES): N=C(N)c1cccc(CC(NS(=O)(=O)c2ccc3ccccc3c2)C(=O)N2CCN(C(=O)C3CCCCC3)CC2)c1 (stereo not shown) [AMD 2-Naph CO-cHex]
- Ki: 36 µM
